ChEMBL document CHEMBL5042528, “Optimization of 2-Amino-4,6-diarylpyrimidine-5-carbonitriles as Potent and Selective A1 Antagonists” (J Med Chem, 2022)

Chains of the proteins cited; added tags and fusions are not shown.
UniProt P30542, whole entry: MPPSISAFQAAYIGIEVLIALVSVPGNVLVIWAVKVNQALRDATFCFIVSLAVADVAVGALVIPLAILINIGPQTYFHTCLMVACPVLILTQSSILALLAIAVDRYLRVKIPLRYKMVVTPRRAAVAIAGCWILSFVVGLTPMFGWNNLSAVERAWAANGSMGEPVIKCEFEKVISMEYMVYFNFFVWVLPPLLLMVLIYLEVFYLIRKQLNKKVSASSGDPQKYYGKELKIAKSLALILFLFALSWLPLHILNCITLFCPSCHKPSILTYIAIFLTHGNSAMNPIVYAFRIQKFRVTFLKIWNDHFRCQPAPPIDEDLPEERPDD

Target: Adenosine receptor A1 (Homo sapiens, UniProt P30542)
Assay: Displacement of [3H]DPCPX from human A1AR expressed in CHO cell membrane at 1 uM incubated for 60 mins by microbeta trilux scintillation counter analysis relative to control
Format: cell membranes

| Compound | Activity [%] |
| --- | --- |
| N#Cc1c(-c2ccccc2)nc(Nc2ccccc2)nc1-c1cccnc1 | 23 |
| CNc1nc(-c2ccccc2)c(C#N)c(-c2cc(F)cc(F)c2)n1 | 16 |
| N#Cc1c(-c2ccccc2)nc(N)nc1-c1ccccc1Cl | 5 |
| N#Cc1c(-c2ccccc2)nc(N)nc1-c1ccc(Cl)cc1Cl | 35 |
| COc1ccc(-c2nc(Nc3ccccc3)nc(-c3ccccc3)c2C#N)cc1 | 24 |
| COc1cc(OC)cc(-c2nc(Nc3ccccc3)nc(-c3ccccc3)c2C#N)c1 | 10 |
| CNc1nc(-c2cccc(Cl)c2)c(C#N)c(-c2cccc(Cl)c2)n1 | 6 |
| CN(C)c1nc(-c2ccccc2)c(C#N)c(-c2cccc(Cl)c2)n1 | 11 |
| N#Cc1c(-c2ccccc2)nc(N)nc1C1CCCCC1 | 20 |
| CNc1nc(-c2cccc(Cl)c2)c(C#N)c(-c2cc(Cl)cc(Cl)c2)n1 | 10 |
| CNc1nc(-c2ccccc2)c(C#N)c(-c2cccs2)n1 | 18 |
| CNc1nc(-c2ccccc2)c(C#N)c(C2CCCCC2)n1 | 2 |
| N#Cc1c(-c2ccccc2)nc(N)nc1-c1cc(F)cc(F)c1 | 27 |
| N#Cc1c(-c2ccccc2)nc(N)nc1C1CCCC1 | 10 |

More lines, now with the values ahead:

| Activity [%] | Compound |
| --- | --- |
| 1 | N#Cc1c(-c2ccccc2)nc(Nc2ccccc2)nc1-c1ccc(F)cc1F |
| 2 | N#Cc1c(-c2cccc(Cl)c2)nc(Nc2ccccc2)nc1-c1cc(Cl)cc(Cl)c1 |
| 8 | CN(C)c1nc(-c2ccccc2)c(C#N)c(-c2ccccc2)n1 |
| 16 | N#Cc1c(-c2ccccc2)nc(Nc2ccccc2)nc1-c1ccccc1Cl |
| 17 | CNc1nc(-c2ccccc2)c(C#N)c(-c2ccccc2OC)n1 |
| 8 | N#Cc1c(-c2ccccc2)nc(Nc2ccccc2)nc1-c1cc(Cl)cc(Cl)c1 |
| 2 | CNc1nc(-c2ccccc2)c(C#N)c(-c2ccccc2Cl)n1 |
| 30 | N#Cc1c(-c2ccccc2)nc(Nc2ccccc2)nc1-c1ccncc1 |
| 5 | N#Cc1c(-c2ccccc2)nc(Nc2ccccc2)nc1-c1ccc(Br)cc1 |
| 1 | N#Cc1c(-c2ccccc2)nc(Nc2ccccc2)nc1-c1cccc(F)c1 |
| 9 | N#Cc1c(-c2ccccc2)nc(Nc2ccccc2)nc1-c1ccsc1 |
| 4 | N#Cc1c(-c2ccccc2)nc(Nc2ccccc2)nc1-c1ccc(O)cc1 |
| 12 | CNc1nc(-c2ccccc2)c(C#N)c(-c2ccc(Br)cc2)n1 |
| 22 | N#Cc1c(-c2ccccc2)nc(Nc2ccccc2)nc1-c1cccc(Cl)c1 |
| 12 | CN(C)c1nc(-c2ccccc2)c(C#N)c(-c2ccc(F)cc2)n1 |
| 13 | N#Cc1c(-c2cccc(Cl)c2)nc(Nc2ccccc2)nc1-c1cccc(Cl)c1 |
